The source of these data is patent US11147816B2, “Composition for inducing differentiation and protection of neural stem cells and method for inducing neuro-regeneration using the same composition” (GENUV Inc., priority 2016, dated 2021).

The subject of this series is mouse adult neural stem cells. The following applies: 10 μM amyloid-beta; each at its optimal concentration (AS703026 10, AZD8330 1, PD318088 1, binimetinib 10, refametinib 1, PD0325901 10, RO5126766 10 μM); day 2.

With `O=C(NOC[C@H](O)CO)c1ccc(F)c(F)c1Nc1ccc(I)cc1F` [PD0325901], the “cell protection and NSC differentiation under amyloid-beta cytotoxicity” value was “provided cell protection and induced the differentiation of NSC”.
